The values below come from US11795195B2, “Antibody-drug conjugates including hemiasterlin derivative” (Sumitomo Pharma Co., Ltd., priority 2017, dated 2023).

Some results are limits rather than exact numbers.

In this assay the test system is SK-BR-3 cells. Description: Cellular Toxicity Test (1) for ADCs. Conditions: SK-BR-3 (CD30 antigen-negative, HER2 antigen-positive cell line), 3 days. The class given is cell-based, human. As for the experimental part:
Karpas-299 cells (ECACC), which are CD30 antigen-positive and HER2 antigen-negative, were cultured in RPMI 1640 (GIBCO) containing 10% fetal bovine serum (MP Biomedicals) (hereinafter, referred to as “culture medium A” in this test). In addition, SK-BR-3 cells (ATCC), which are CD30 antigen-negative and HER2 antigen-positive, were cultured in McCoy's 5A (GIBCO) containing 10% fetal bovine serum (MP Biomedicals) (hereinafter, referred to as “culture medium B” in this test). Karpas-299 cells and SK-BR-3 cells were prepared to be 2×10^6 cells/mL in culture medium A or culture medium B, and were added to a 96 well microplate for cell culturing in an amount of 50 μL for each well. After the addition, SK-BR-3 cells were cultured at 37 degree under 5% CO2 overnight. ADCs 4 times diluted with culture medium A or culture medium B in 8 stages were added to the microplate in an amount of 50 μL for each well, and Karpas-299 cells and SK-BR-3 cells were cultured at 37 degree under 5% CO2 for 4 days or 3 days, respectively. After culturing, the microplate was taken out from the incubator, and was left at rest at room temperature for 10 minutes. […] Using a microplate luminometer, luminescence was measured, thereby calculating the cell viability for each concentration of the ADC. The IC50 value was calculated in accordance with the method described in Test Example 1.

Take “Comparative Example 2: Trastuzumab, a HER2 antigen-specific antibody, no modifying agent, average DAR 0”: the IC50 was greater than 6.6 nM.

The IC50 is the concentration needed to halve the response being measured. The low end stands for greater potency, the high end for weaker potency.
